Ki data for one compound are collected here from PMC9369419 (International Journal of Molecular Sciences, 2022).

By UniProt entry, the sequences of proteins in these tests, tags left out. Residues count along the entry.
UniProt P22756, 31-949 limits assumed: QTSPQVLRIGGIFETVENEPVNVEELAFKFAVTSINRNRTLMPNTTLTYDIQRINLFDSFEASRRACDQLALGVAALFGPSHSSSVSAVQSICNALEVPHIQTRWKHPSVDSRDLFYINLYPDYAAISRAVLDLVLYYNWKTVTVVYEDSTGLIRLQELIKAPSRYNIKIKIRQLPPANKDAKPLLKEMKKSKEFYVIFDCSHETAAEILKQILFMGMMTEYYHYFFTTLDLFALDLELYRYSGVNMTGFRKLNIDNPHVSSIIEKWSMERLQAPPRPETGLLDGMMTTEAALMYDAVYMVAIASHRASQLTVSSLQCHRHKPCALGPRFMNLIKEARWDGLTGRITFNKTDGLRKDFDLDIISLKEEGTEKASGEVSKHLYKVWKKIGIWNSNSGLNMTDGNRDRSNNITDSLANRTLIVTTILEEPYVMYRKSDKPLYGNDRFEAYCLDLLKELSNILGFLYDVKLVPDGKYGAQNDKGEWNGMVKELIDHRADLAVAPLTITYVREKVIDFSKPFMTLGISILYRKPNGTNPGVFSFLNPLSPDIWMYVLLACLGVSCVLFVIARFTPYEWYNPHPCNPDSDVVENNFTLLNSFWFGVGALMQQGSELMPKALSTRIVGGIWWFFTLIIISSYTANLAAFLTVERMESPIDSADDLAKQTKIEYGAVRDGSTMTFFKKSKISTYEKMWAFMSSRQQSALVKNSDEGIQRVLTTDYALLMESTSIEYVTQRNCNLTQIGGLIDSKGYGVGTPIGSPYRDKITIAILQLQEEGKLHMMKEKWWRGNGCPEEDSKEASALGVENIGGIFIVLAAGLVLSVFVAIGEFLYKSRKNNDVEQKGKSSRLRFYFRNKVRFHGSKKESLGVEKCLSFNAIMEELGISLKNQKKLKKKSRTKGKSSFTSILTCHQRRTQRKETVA
UniProt P42260, 32-908 limits assumed: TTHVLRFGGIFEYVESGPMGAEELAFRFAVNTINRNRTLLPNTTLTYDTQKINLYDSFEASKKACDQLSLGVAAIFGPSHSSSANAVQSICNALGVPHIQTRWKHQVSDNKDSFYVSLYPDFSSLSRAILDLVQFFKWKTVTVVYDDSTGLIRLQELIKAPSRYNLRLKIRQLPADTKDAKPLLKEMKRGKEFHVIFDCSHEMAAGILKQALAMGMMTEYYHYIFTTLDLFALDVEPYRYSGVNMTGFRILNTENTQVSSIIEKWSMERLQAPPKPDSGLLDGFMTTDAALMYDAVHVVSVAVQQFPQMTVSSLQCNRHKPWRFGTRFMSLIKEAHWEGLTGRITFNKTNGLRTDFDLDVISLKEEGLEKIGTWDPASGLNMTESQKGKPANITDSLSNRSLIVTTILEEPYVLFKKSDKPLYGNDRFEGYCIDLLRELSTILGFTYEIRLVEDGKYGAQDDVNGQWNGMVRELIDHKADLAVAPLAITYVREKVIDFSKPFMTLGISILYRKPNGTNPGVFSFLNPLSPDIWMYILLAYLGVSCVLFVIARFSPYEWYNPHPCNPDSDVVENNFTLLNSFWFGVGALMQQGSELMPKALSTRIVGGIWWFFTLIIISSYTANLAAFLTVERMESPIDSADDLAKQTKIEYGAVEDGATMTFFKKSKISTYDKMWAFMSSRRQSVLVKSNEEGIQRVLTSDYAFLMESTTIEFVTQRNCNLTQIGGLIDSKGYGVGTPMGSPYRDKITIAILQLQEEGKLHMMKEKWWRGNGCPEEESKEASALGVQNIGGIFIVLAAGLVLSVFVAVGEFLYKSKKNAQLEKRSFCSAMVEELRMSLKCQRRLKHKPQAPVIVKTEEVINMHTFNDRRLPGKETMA
UniProt P42264, 32-919 limits assumed: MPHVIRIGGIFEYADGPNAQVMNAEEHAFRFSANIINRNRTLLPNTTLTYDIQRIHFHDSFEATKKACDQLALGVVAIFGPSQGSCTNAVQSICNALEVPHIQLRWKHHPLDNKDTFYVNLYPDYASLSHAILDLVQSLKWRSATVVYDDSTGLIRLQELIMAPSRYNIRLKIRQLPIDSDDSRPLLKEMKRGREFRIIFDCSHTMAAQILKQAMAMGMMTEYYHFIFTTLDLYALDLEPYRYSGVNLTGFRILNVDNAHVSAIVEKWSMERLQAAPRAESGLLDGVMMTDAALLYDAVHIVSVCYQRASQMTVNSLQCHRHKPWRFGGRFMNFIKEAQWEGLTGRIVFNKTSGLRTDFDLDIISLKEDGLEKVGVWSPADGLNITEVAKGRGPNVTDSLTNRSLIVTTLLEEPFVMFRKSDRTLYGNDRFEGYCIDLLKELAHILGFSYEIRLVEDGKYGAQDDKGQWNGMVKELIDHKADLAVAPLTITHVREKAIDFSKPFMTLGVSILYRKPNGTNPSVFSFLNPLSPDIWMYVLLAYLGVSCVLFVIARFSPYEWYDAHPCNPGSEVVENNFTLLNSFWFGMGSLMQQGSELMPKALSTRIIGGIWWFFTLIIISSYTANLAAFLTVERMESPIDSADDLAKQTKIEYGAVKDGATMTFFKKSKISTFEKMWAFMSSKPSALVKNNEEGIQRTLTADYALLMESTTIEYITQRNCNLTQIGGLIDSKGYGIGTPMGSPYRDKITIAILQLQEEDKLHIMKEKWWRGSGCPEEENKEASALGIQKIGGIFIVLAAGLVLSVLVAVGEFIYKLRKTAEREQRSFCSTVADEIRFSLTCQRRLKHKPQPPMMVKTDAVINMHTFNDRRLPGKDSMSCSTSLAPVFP
UniProt Q63273, 15-979 limits assumed: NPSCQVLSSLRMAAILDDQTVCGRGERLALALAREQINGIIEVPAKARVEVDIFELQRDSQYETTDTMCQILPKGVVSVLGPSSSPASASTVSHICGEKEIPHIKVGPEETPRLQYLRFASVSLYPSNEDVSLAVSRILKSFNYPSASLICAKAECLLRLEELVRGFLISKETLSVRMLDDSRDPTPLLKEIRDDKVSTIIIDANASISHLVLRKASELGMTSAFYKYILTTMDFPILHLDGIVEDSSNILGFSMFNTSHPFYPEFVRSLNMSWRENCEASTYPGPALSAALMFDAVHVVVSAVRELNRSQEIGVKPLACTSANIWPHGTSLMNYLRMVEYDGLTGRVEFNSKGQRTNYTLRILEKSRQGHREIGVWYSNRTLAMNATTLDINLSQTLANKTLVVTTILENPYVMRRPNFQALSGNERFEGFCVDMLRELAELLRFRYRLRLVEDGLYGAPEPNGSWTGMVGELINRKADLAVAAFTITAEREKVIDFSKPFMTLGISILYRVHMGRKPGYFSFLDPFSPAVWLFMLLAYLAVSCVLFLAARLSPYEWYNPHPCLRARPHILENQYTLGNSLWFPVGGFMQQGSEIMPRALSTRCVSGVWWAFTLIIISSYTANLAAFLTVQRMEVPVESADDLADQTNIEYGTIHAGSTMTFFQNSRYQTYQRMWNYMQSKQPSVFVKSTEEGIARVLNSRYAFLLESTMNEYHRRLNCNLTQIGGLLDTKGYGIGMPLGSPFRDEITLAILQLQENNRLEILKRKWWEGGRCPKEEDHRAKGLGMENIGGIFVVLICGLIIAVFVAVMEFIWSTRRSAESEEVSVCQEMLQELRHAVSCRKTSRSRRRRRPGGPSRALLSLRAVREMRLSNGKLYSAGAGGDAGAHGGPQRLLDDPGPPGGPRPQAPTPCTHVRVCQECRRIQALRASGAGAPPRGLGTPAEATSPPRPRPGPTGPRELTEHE
UniProt P19491, 22-883 limits assumed: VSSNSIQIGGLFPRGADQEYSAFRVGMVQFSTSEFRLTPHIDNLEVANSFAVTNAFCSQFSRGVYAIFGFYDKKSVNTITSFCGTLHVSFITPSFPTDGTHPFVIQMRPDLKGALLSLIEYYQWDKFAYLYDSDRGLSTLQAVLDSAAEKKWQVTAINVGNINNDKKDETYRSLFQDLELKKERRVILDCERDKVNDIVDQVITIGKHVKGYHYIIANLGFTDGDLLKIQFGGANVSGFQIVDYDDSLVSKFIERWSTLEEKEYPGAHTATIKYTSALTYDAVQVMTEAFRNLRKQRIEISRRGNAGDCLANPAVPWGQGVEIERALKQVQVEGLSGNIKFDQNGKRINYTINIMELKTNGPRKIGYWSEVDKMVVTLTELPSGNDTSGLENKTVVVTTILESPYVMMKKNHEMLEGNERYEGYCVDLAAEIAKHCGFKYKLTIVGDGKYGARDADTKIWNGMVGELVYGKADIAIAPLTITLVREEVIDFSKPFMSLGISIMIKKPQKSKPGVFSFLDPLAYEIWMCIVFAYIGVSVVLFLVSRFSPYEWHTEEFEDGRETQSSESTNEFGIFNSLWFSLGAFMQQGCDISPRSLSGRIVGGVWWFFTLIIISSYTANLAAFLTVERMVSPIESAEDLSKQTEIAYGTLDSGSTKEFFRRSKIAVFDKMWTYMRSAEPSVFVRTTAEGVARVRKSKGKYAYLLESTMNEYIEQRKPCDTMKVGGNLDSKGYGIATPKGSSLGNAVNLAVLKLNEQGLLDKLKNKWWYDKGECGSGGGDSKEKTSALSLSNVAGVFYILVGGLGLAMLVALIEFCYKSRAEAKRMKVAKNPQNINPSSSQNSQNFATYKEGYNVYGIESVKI

One assay deals with GluK1 (Rattus norvegicus, UniProt P22756). As to the kind of experiment: Radioligand binding at recombinant homomeric GluK1 in Sf9 membranes. The settings on record: read-out: Ki GluK1, recombinant rat homomeric receptor, [3H]-(S)-NF608, mean ± SEM, tested form: H2O.
A further assay concerns the target GluK2 (Rattus norvegicus, UniProt P42260). As to the kind of experiment: Radioligand binding at recombinant homomeric GluK2 in Sf9 membranes. The settings on record: read-out: Ki GluK2, recombinant rat homomeric receptor, [3H]-kainic acid, mean ± SEM, tested form: H2O.
Another assay has as its target GluK3 (Rattus norvegicus, UniProt P42264). As to the kind of experiment: Radioligand binding at recombinant homomeric GluK3 in Sf9 membranes. The settings on record: read-out: Ki GluK3, recombinant rat homomeric receptor, [3H]-kainic acid, mean ± SEM, tested form: H2O.
The target of the next assay is GluK5 (Rattus norvegicus, UniProt Q63273). The assay is described as follows: Radioligand binding at recombinant homomeric GluK5 in Sf9 membranes. The settings on record: read-out: Ki GluK5, recombinant rat homomeric receptor, [3H]-kainic acid, mean ± SEM, tested form: H2O.
Another assay deals with GluA2 (Rattus norvegicus, UniProt P19491). The assay is described as follows: Radioligand binding at recombinant homomeric GluA2 in Sf9 membranes. The settings on record: read-out: Ki GluA2, recombinant rat homomeric receptor, [3H]-(RS)-AMPA, mean ± SEM, tested form: H2O.

Structures are written as SMILES.

As to `O=C(Nn1c(=O)c(=O)[nH]c2cc(C#Cc3ccc(O)nc3)ccc21)c1ccccc1`, the Ki – broadly, the dissociation constant of the complex between target and ligand, obtained from inhibition or displacement – on GluK1 was more than 100 µM; at GluK2, more than 100 µM; on GluK3, 11 µM; at GluK5 it was more than 100 µM; at GluA2, more than 100 µM.
